Data on one compound can be found in patent publication EP0318859A2, “N-substituted mercaptopropanamide derivatives” (Dainippon Pharmaceutical Co., Ltd., priority 1987, dated 1989).

Chains of the proteins cited; added tags and fusions are not shown.
UniProt P07861, whole entry: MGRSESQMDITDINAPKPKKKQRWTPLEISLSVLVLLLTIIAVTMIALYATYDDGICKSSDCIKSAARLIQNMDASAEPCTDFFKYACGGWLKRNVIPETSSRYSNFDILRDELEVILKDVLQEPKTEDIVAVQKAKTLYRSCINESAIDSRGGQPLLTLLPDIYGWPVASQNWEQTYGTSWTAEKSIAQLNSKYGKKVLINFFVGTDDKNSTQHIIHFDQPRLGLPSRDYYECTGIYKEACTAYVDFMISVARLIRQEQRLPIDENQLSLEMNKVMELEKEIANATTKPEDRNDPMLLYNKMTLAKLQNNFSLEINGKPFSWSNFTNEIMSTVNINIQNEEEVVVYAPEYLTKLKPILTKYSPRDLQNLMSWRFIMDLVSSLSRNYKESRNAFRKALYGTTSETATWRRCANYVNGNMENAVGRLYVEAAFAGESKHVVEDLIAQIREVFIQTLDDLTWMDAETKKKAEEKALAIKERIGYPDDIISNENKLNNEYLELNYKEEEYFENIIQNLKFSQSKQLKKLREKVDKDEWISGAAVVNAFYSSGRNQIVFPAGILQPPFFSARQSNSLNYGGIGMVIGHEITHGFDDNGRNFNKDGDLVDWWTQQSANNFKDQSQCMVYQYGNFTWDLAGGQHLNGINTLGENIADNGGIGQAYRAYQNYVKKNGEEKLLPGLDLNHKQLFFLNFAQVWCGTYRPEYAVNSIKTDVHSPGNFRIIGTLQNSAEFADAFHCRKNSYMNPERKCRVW

Each structure is given as a SMILES string.

The test system of assay [1] is enkephalinase. Briefly: Enkephalinase inhibitory activity in vivo (potentiation of the analgesic activity of DAME, tail pressure pain). As to conditions: p.o., 30 minutes before intracisternal DAME; pressure pain threshold measured 5 minutes after DAME; male Std:ddy mice; tested form: free acid. The procedure:
(2) Enkephalinase inhibitory activity in vivo
(Potentiation of the analgesic activity of DAME)
Pressure pain was induced by pressing the tail of male Std:ddy mice (weighing 20 - 26 g) using an apparatus for pressure measurement. The pressure pain threshold (biting response) was measured as mm. Test compound, dissolved or suspended in 0.5 % gum tragacanth aqueous solution, was given orally 30 minutes before intracisternaly administration of D-Ala²-Met⁵-enkephalin (DAME). Five minutes after administration of DAME, the pressure pain threshold was measured, and the potentiation activity of test compounds on the analgesic effect of DAME was tested.

For assay [2], the target named is enkephalinase (Rattus norvegicus, UniProt P07861). As to the kind of experiment: Enkephalinase inhibitory activity in vitro ([³H]-leucine-enkephalin degradation). As to conditions: read-out: IC₅₀; rat striatum enkephalinase; substrate [³H]-leucine-enkephalin 20 nM; 1 hour at 37°C; tested form: free acid. The procedure: (3) Enkephalinase inhibitory activity in vitro
Enkephalin degrading enzymes were separated according to the method described by Gorenstein and Snyder (Life Science, 25, 2065 (1979)).
Male Std:Wistar rats were decapitated and the striata were removed. These were homogenized in 30 volumes of 50 mM Tris-HCl buffer (pH 7.4) and centrifuged for 15 minutes at 1,000 x g. The supernatant was centrifuged for 15 minutes at 50,000 x g. The pellet was washed three times with the same buffer and then suspended in 15 volumes of 50 mM Tris-HCl buffer (pH 7.4) containing 1 % Triton X-100, followed by incubation for 45 minutes at 37°C. After centrifugation for 1 hour at 100,000 x g, the supernatant was applied onto DEAE-cellulose ion exchange chromatography column. The fraction containing enkephalin dipeptidylcarboxypeptidase was used as enkephalinase sample.
(ii) Measurement of inhibitory activity
After preincubation of test compound and enkephalinase for 5 minutes at 37°C, [³H]-leucine-enkephalin (substrate) was added to the reaction mixture and then the mixture was incubated for 1 hour at 37°C (final volume: 100 µl, final concentration of substarate: 20 nM). […] The IC₅₀-value of test compounds was calculated from the inhibitory rates, estimated from the difference between the enzyme activities in the absence and the presence of test compound.

For the compound `O=C(O)c1cccc(NC(=O)C(CS)Cc2ccccc2)c1` (centres unmarked), in the assay with enkephalinase [1], the ED₅₀ was 51.0 mg/kg. In addition, the IC50 on enkephalinase [2] came to 2.1 nM.
